# Values joined by “and” are separate entries in the source; they are usually repeats but may differ in a detail not shown here. Identical values can stand only once. The entries are a selection whose mix differs from that of the whole data set. Active and inactive are the calls of the source. Cut-off read from the data, not from the text of the source: active = activity change below about -30%; inconclusive = mostly about -25% to -30%; inactive = weaker than that.
# Molecular target: L-lactate dehydrogenase A chain (Homo sapiens) (UniProt P00338)
# Assay: qHTS assay for inhibitors of human lactate dehydrogenase;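 note: values are at about 110 or 230 µM; plate controls were DMSO wells for no effect and wells without enzyme for full effect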
# Conditions: purified LDHA, NADH/diaphorase-resazurin fluorescence; stronger effect = lower value
# Text: LDH is a key glycolytic enzyme that catalyzes the final step in the glycolytic pathway, reducing pyruvate to lactate and regenerating NAD+ equivalents necessary for continued glycolysis. LDHA has been linked to the carcinogenesis and malignancy in numerous forms of cancers and many other diseases. Consequently, both pharma and academia have invested in significant research efforts to identify small molecule therapeutics. Such attempts have been stalled or abandoned due to limited success in discovering potent and drug-like inhibitors that can be utilized to validate LDHA in vivo as a drug target, a necessary step toward advancing such a molecule towards the clinic Towards this goal we designed and performed a quantitative high-throughput screening (qHTS) campaign to discover novel compounds that are potent inhibitors of LDHA enzyme activity and cancer cell line growth.
# The assay was optimized to 1536-well plates. Briefly, 3 µL of human lactate dehydrogenase 5 (#A38558H, Meridian Life Science, Inc., Memphis, TN) in LDH assay buffer (200 mM Tris HCl pH 7.4, 100 microM EDTA and 0.01% Tween-20) was added to a black solid bottom 1536-well assay plate (Greiner Bio-One) using a BioRAPTR FRD dispenser (Beckman Coulter, Brea, CA). A 1536-well pintool dispenser outfitted with 20 nL pins (Wako Automation, San Diego, CA) was used to transfer 23 nL of DMSO-solubilized compound (both library and vehicle controls) to each 1536-well assay plate. Following compound transfer, 1 µL of substrate solution containing NADH and sodium pyruvate (Sigma-Aldrich, St. Louis, MO) in LDH assay buffer was dispensed via BioRAPTR FRD to initiate the reaction. Final concentrations in the 4 microL reaction volume were 2 nM LDHA enzyme, 0.06 mM NADH and 0.2 mM sodium pyruvate. Following a 5 minute incubation period at room temperature, 1 µL of detection reagent (C. kluyveri diaphorase (Sigma-Aldrich) and resazurin sodium salt (Sigma-Aldrich) in LDH assay buffer) was added to a total volume of 5 µL. Final concentrations of detection reagents were 0.133 mg/mL diaphorase and 37 µM resazurin. Plates were immediately transferred to a ViewLux microplate imager (PerkinElmer, Waltham, MA), and any resulting resorufin fluorescence was measured (ex540, em590 nm) at 0 and 20 minutes. Fluorescence was normalized using enzyme-free and DMSO-treated control wells on each plate.
row,SMILES,activity change
1,CC1C(=O)CCN(CCc2ccccc2)C1C (stereo not given),inactive: 4.24%
2,CC(C)(C)OC(=O)N1CCC(N(C(=O)c2ccccc2)c2ccc(Cl)cc2)CC1,inactive: 3.29%
3,O=C(NCC1(N2CCOCC2)CCCCC1)c1ccc([N+](=O)[O-])cc1,inactive: 0.471%
4,N#Cc1ccc(C(=O)NCC2(N3CCCCC3)CCCCC2)cc1,inactive: 0.795%
5,O=C(NCC1(N2CCOCC2)CCCCC1)c1ccccc1[N+](=O)[O-],inactive: 7.32%
6,CCCCn1nnnc1C(c1cccc(OC)c1OC)N1CCC(n2c(=O)[nH]c3ccccc32)CC1 (stereo not given),inactive: -5%
7,Fc1ccc(CN2CCC(Nc3ccc(Br)cc3)CC2)cc1,inactive: 5.42%
8,O=c1[nH]c2ccccc2n1C1CCN(C(c2cccs2)c2nnnn2C2CCCC2)CC1 (stereo not given),inactive: -4.85%
9,O=C(O)c1cccc(Nc2c([N+](=O)[O-])cc([N+](=O)[O-])cc2[N+](=O)[O-])c1,inactive: 2.61%
10,CCc1cc(C(=O)NCC2(N3CCCCC3)CCCCC2)sc1C,inactive: 0.321%
11,O=C(OC1CN2CCC1CC2)C1c2ccccc2C=Cc2ccccc21 (stereo not given),inactive: -0.0881%
12,N/C(=N\O)c1c(N)no[n+]1[O-],inactive: -6.59%
13,Cn1nc(C(=O)NCC2(N3CCOCC3)CCCCC2)c2ccccc2c1=O,inactive: 0.351%
14,CCOC(=O)N1CCC(Nc2ccc(C)cc2)CC1,inactive: 0.3%
15,Cc1cc(NC2CCN(Cc3ccccc3)CC2)ccc1Br,inactive: -0.159%
16,COc1cccc(C(c2nnnn2C(C)(C)C)N2CCC(n3c(=O)[nH]c4ccccc43)CC2)c1OC (stereo not given),inactive: -6.38%
17,O=C(NCC1(N2CCCCC2)CCCCC1)c1n[nH]c(=O)c2ccccc12,inactive: -15.8%
18,O=c1[nH]c2ccccc2n1C1CCN(C(c2ccnc3ccccc23)c2nnnn2C2CCCC2)CC1 (stereo not given),inactive: -7.84%
19,COc1ccc(C(=O)NCC2(N3CCOCC3)CCCCC2)cc1OC,inactive: 0.144%
20,O=Cc1ccc(N(CCCl)CCCl)cc1,inactive: -0.112%
21,O=c1[nH]c2ccccc2n1C1CCN(C(c2cccs2)c2nnnn2C2CCCCC2)CC1 (stereo not given),inactive: -7.6%
22,O=C(NCC1(N2CCOCC2)CCCCC1)c1n[nH]c(=O)c2ccccc12,inactive: 0.513%

row,SMILES,activity change
1,O=C(NCC1(N2CCOCC2)CCCCC1)c1cc(Br)ccc1Cl,inactive: -0.574%
2,COc1cc(C(=O)NCC2(N3CCOCC3)CCCCC2)cc(OC)c1C,inactive: 0.281%
3,CCCCn1nnnc1C(c1ccccc1)N1CCC(n2c(=O)[nH]c3ccccc32)CC1 (stereo not given),inactive: -1.54%
4,CN1CCC(Nc2ccc(Cl)cc2)CC1,inactive: -0.701%
5,CCC(CO)(C(=O)OC1CN2CCC1CC2)c1ccccc1 (stereo not given),inactive: -8.73%
6,COc1cc(OC)cc(C(=O)NCC2(N3CCOCC3)CCCCC2)c1,inactive: -5.57%
7,COc1cccc(C(c2nnnn2C2CCCC2)N2CCC(n3c(=O)[nH]c4ccccc43)CC2)c1OC (stereo not given),inactive: -8.25%
8,COc1cc(C(=O)NCC2(N3CCOCC3)CCCCC2)cc(OC)c1OC,inactive: 0.29%
9,COc1cccc(C(=O)N(c2cc(C)cc(C)c2)C2CCN(C(=O)OC(C)(C)C)CC2)c1,inactive: 7.93%
10,O=c1[nH]c2ccccc2n1C1CCN(C(c2cc3ccccc3o2)c2nnnn2C2CCCC2)CC1 (stereo not given),inactive: -2.64%
11,CCCOc1ccc(C(=O)NCC2(N(C)C)CCCCC2)cc1,inactive: -0.759% and inactive: 0.493%
12,ClCCN(CCCl)c1ccccc1,inactive: 2.22%
13,O=C(O)C1(Nc2ccccc2)CCN(Cc2ccccc2)CC1,inactive: -4.05%
14,NN(c1ccccc1)C1CCN(CCc2ccccc2)CC1,inactive: 8.01%
15,ClCCN(CCCl)c1ccc(C=C2C=CC=C2)cc1,inactive: 7.64%
16,CC(C)(C)OC(=O)N1CCC(Nc2ccccc2)CC1,inactive: -3.23%
17,CCCOc1ccccc1C(=O)NCC1(N(C)C)CCCCC1,inactive: 8.29%
18,CN1CCC(Nc2ccc(F)c(Cl)c2)CC1,inactive: -2.86%
19,CCOc1ncccc1C(=O)NCC1(N2CCOCC2)CCCCC1,inactive: -5.34%
20,Cc1ccc2oc(C(=O)NCC3(N4CCCCC4)CCCCC3)cc(=O)c2c1,inactive: -0.828%
21,CN(C)c1ccc(C(=O)NCC2(N3CCCCC3)CCCCC2)cc1,inactive: -7.89%
22,CC1CN(CCc2ccccc2)C(C)CC1=O (stereo not given),inactive: -10.6%

row,SMILES,activity change
1,Cn1c(=O)[nH]cc(N(CCCl)CCCl)c1=O,inactive: -3.77%
2,O=C(NCC1(N2CCCCC2)CCCCC1)c1ccco1,inactive: -1.27%
3,CC(C)(C)c1ccc(C(=O)NCC2(N3CCOCC3)CCCCC2)cc1,inactive: -2.45%
4,Clc1ccccc1CN1CCC(Nc2ccc(Br)cc2)CC1,inactive: 13.9%
5,Cc1ccccc1C(=O)NCC1(N(C)C)CCCCC1,inactive: -5.71%
6,CCN1CCC(Nc2cccc(F)c2)CC1,inactive: -6.96%
7,COc1ccc(C(c2nnnn2C2CCCCC2)N2CCC(n3c(=O)[nH]c4ccccc43)CC2)cc1 (stereo not given),inactive: 0.385%
8,CC(C)(C)n1nnnc1C(c1ccnc2ccccc12)N1CCC(n2c(=O)[nH]c3ccccc32)CC1 (stereo not given),inactive: -3.43%
9,Cn1cc(C(=O)NCC2(N3CCOCC3)CCCCC2)c2ccccc21,inactive: -5.56%
10,Cc1ccccc1NC1(C#N)CCN(Cc2ccccc2)CC1,inactive: -3.14%
11,Cc1ccc(NC2(C#N)CCN(Cc3ccccc3)CC2)cc1,inactive: -2.98%
12,Fc1ccccc1NC1CCN(Cc2ccccc2)CC1,inactive: -3.35%
13,Cc1ccc(Nc2c([N+](=O)[O-])cc([N+](=O)[O-])cc2[N+](=O)[O-])cc1,inactive: 3.03%
14,Cc1ccc(C(=O)NCC2(N3CCCCC3)CCCCC2)o1,inactive: 0.553%
15,COc1cc(OC)cc(C(=O)NCC2(N3CCCCC3)CCCCC2)c1,inactive: -4.65%
16,O=c1[nH]c2ccccc2n1C1CCN(C(c2ccnc3ccccc23)c2nnnn2C2CCCCC2)CC1 (stereo not given),inactive: -7.62%
17,CN(C)C1(CNC(=O)c2cc3c(s2)CCC3)CCCCC1,inactive: 4.19%
18,CCC(c1nnnn1C1CCCCC1)N1CCC(n2c(=O)[nH]c3ccccc32)CC1 (stereo not given),inactive: -3.91%
19,CN(C)C1(CNC(=O)c2ccc(C(C)(C)C)cc2)CCCCC1,inactive: 1.5%
20,COc1cccc(C(c2nnnn2C2CCCCC2)N2CCC(n3c(=O)[nH]c4ccccc43)CC2)c1OC (stereo not given),inactive: -4.68%
21,CC(=O)N(c1ccccc1)C1CCNCC1,inactive: -12.1%

# Reference: PubChem BioAssay AID1347041 (National Center for Advancing Translational Sciences (NCATS), 2019)
